Test: Pharmacokinetics in mice after single s.c. or oral dose
Type: in vivo, female CD1 mice
Description: The data were fitted to a non-compartment model.

## CC[N+](C)(CC)CCCCCCOc1ccc(C(=C2C3CC4CC(C3)CC2C4)c2ccc(OCCCCCC[N+](C)(CC)CC)cc2)cc1 [NB-115]
After oral administration
  blood levels of compound: only very low levels
After s.c. injection
  blood levels of compound: very high blood levels

— paper PMC6884575, “Suppression of FOXM1 activities and breast cancer growth in vitro and in vivo by a new class of compounds” (NPJ Breast Cancer, 2019)
